{
  "source": "ChEMBL document CHEMBL1123692",
  "about": "“Dopamine autoreceptor agonists: resolution and pharmacological activity of 2,6-diaminotetrahydrobenzothiazole and an aminothiazole analogue of apomorphine” (J Med Chem, 1987)",
  "test_system": "Rattus norvegicus",
  "test": "Percent difference of DA utilization when compared to saline at a dose of 10 mg/kg",
  "assay_type": "functional",
  "data": [
    {"smiles": "CCCN[C@H]1CCc2nc(N)sc2C1.Cl.Cl", "values": [
      {"measurement": "Difference", "result": 131, "unit": "%"}
    ]}
  ]
}
